The source of these data is PubChem BioAssay AID588727 (Southern Research Specialized Biocontainment Screening …, 2011).

The list shows a part of the results, in another mix than the full data. Entries with a potency or affinity are not part of this list. Calls of active or inactive are those of the source. The rule behind the calls is not given here.

The assay is described as follows: inhibitors of VEEV TC-83 cytopathic effect, confirmation, Vero cells (AID 588727). Conditions: VEEV TC-83 cytopathic effect inhibition, at 20 µM, hits give high values.
As to `CCC(=O)N(c1ccccc1)C1(COC)CCN(CCn2nnn(CC)c2=O)CC1`, the inhibition is inactive: 0.74%.

For `CCC(=O)N(c1ccccc1)C1(COC)CCN(CCc2cccs2)CC1`, the inhibition is inactive: 0.37%.
